The record followed here is US8822534B2, “Substituted aminopropionic derivatives as neprilysin inhibitors” (priority 2009, dated 2014).

Sequences of proteins named here, by UniProt entry; tags and fusion partners are left off. A change or cut given only in a name is not applied to a line headed by its entry.
UniProt P08473: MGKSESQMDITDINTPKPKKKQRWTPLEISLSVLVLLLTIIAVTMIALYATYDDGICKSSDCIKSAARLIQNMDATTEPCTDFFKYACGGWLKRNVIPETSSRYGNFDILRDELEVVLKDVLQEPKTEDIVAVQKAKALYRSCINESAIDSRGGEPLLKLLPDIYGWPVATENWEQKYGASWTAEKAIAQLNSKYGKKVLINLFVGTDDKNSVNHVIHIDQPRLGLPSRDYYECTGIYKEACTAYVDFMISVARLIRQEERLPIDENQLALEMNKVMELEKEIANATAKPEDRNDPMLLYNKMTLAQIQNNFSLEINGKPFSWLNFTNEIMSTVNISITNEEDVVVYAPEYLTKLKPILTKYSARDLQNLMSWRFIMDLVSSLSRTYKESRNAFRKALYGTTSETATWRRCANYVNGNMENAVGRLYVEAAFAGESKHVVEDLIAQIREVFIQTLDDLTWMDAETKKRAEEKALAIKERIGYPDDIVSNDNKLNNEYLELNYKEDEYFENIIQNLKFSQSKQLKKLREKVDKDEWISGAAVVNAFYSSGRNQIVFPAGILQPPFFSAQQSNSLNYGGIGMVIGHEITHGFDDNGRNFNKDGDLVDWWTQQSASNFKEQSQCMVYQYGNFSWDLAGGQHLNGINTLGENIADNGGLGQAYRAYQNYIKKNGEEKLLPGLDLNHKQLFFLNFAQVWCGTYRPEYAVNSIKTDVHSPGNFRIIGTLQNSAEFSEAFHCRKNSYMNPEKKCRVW

The structures appear in SMILES notation.

This experiment addresses recombinant human neutral endopeptidase (NEP, EC 3.4.24.11) (Homo sapiens (Human), UniProt P08473). In words: in vitro inhibition of recombinant human neutral endopeptidase (fluorescence lifetime assay). Type of experiment: biochemical. Particulars: 1 hour pre-incubation, read after 60 min at room temperature, pH 7.4, substrate Cys(PT14)-Arg-Arg-Leu-Trp-OH 0.7 μM.
As for `O=C(O)C[C@@H](Cc1ccc(-c2cccc(Cl)c2)cc1)NC(=O)C(F)(F)C(F)(F)C(=O)O` [Example 11-11], the IC50 (as a rule, the concentration needed to halve the response being measured) amounted to 0.5 nM. Turning to `CCOC(=O)CCCC(=O)N[C@@H](CC(=O)O)Cc1ccc(-c2cccc(Cl)c2)cc1` [Example 3-26], the 50% inhibitory concentration (IC50) came to 15 nM. As to `COc1ccc(F)cc1-c1ccc(C[C@H](CC(=O)O)NC(=O)c2cc(O)no2)cc1` [Example 5-55], the IC50 amounted to 0.7 nM.

Take `CCc1ncc(C(=O)N[C@@H](CC(=O)O)Cc2ccc(-c3cccc(Cl)c3)cc2)o1` [Example 5-47]: the IC50 is 2.7 nM. The value for `CCCCOC(=O)CCC(=O)N[C@@H](CC(=O)O)Cc1ccc(-c2cccc(Cl)c2)cc1` [Example 3-25, (R)-3-(4-butoxy-4-oxobutanamido)-4-(3′-chlorobiphenyl-4-yl)butanoic acid] was 18 nM; that for `O=C(O)C[C@@H](Cc1ccc(-c2ccccc2)cc1)NC(=O)c1cnc(O)nc1` [Example 5-11] was 3 nM; that for `O=C(O)C[C@@H](Cc1ccc(-c2ccccc2)cc1)NC(=O)c1cc(C(=O)O)ncn1` [Example 5-12] was 67 nM. As for `O=C(O)C[C@@H](Cc1ccc(-c2cccc(Cl)c2)cc1)NC(=O)c1n[nH]c(=O)o1` [Example 5-46], the figure is 0.5 nM.
